# Where “and” joins values, the source holds several entries; their conditions need not be identical. Equal values may be shown once. The list shows a part of the results, in another mix than the full data. Calls of active or inactive are those of the source.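 The calls were made as follows: active = inhibition above about 30% (limit read from the data); inactive = the rest.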
# Chains of the proteins cited; added tags and fusions are not shown. Lines headed by an entry give the natural chain unless they say otherwise; changes in a name come on top.
# UniProt P14598: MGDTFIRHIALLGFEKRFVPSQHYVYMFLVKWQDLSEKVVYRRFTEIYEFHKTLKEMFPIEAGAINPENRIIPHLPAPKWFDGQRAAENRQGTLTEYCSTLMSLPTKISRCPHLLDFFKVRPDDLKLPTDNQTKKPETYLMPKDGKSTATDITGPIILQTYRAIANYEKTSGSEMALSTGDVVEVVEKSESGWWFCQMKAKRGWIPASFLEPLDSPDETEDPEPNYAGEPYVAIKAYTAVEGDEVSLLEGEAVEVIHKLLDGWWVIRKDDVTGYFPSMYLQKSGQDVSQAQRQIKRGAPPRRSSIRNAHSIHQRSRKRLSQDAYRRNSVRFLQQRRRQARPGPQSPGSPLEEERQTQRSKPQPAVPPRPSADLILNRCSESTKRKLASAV
# Biological target: Neutrophil cytosol factor 1 (Homo sapiens) (UniProt P14598)
# Assay: p47phox/p22phox peptide binding inhibitors, primary screen, biochemical, uHTS, NADPH oxidase regulatory subunit (AID 1274);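 also: 0% = p47phox with labelled peptide and 100% = labelled peptide alone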
# Details: fluorescence polarization, 2 h, at 24.7 µM, active compounds read high
row,SMILES,inhibition
1,O=C(/C=C/c1ccccc1)OC1CN2CCC1CC2 (stereo not drawn),inactive: -1.88%
2,Cc1nn(-c2ccccc2)c2c1P(=O)(N1CCOCC1)N(C)C(c1ccccc1)=N2 (stereo not drawn),inactive: -4.73%
3,CC1CCC(C(C)C)C(OP(=O)(Nc2ccccn2)c2ccccc2)C1 (stereo not drawn),inactive: -2.8%
4,O=[As](O)(c1cccs1)c1cccs1,inactive: 4.3%
5,Cc1ccc(OCC(=O)OC2CN3CCC2CC3)cc1 (stereo not drawn),inactive: -6.85%
6,O=P1(Nc2ccc(Br)cn2)COc2ccccc2OC1,inactive: -1.67%
7,Nc1cccc([As](=O)(O)c2ccccc2)c1,inactive: -3.67%
8,O=P1(Nc2ncccn2)COc2ccccc2OC1,inactive: 13.9%
9,Clc1n[nH]nc1-c1nn[nH][15n]1,inactive: -15.5%
10,CC(C)(C)C(=O)NC(Sc1ncccn1)C(Cl)(Cl)Cl (stereo not drawn),inactive: -5.38%
11,CCOP(=O)(Nc1ccc(C)cn1)OCC,inactive: -9.36%
12,O=P1(Nc2ccccn2)COc2ccccc2OC1,inactive: 1.21%
13,CC(C)/C=N\N=C(\N)N[N+](=O)[O-],inactive: 1.5%
14,CN(C(=O)Cc1ccc(Cl)c(Cl)c1)[C@@H]1CCCC[C@H]1N1CCCC1,inactive: -12%
15,Cc1cccc(OCC(=O)OC2CN3CCC2CC3)c1 (stereo not drawn),inactive: -2.89%
16,O=[As](O)(c1cccc(O)c1)c1cccc(O)c1,inactive: -8.64%
17,O=[As](O)(O)c1cccnc1,inactive: -53.5%
18,COc1cc(C(=O)NCC2(N3CCOCC3)CCCCC2)cc(Cl)c1OC(C)C,inactive: -2.97%
19,O=C(OC1CN2CCC1CC2)c1ccc(Cl)cc1 (stereo not drawn),inactive: 0.84%
20,COc1cc(C2NCCC3(OCCO3)C2(C)C)cc(OC)c1OC (stereo not drawn),inactive: -12.8%
21,CCOP(=O)(Nc1cccc2ccccc12)OCC,inactive: -5.4%
22,CCCOP(=S)(Nc1nc(N)cc(=O)[nH]1)OCCC,inactive: 0.68%
23,Nc1cccc2c([As](=O)(O)O)cccc12,inactive: 10.6%
24,Cc1ccc(NCCc2c([N+](=O)[O-])cc([N+](=O)[O-])cc2[N+](=O)[O-])cc1,inactive: -11%
25,Nc1ccccc1[As](=O)(O)c1ccccc1,inactive: 1.63%
26,O=C(O)COc1ccc([As](=O)(O)O)cc1[N+](=O)[O-],inactive: 2.1%

row,SMILES,inhibition
1,CS(=O)(=O)c1cc([N+](=O)[O-])c2no[n+]([O-])c2c1,inactive: 29.9%
2,CCOP1(=S)c2c(C)nn(CCC#N)c2N=C(c2ccccc2F)N1C (stereo not drawn),inactive: -9.88%
3,O=P(Nc1nccs1)(Oc1ccccc1)Oc1ccccc1,inactive: -11%
4,O=P(Nc1nccs1)(c1ccccc1)c1nc2ccccc2s1 (stereo not drawn),active: 61.7%
5,O=[N+]([O-])c1ccc2c(c1)nnn2O,inactive: -5.61%
6,CCOP1(=S)c2c(C)nn(CCC#N)c2N=C(c2ccc(F)cc2)N1C (stereo not drawn),inactive: -3.56%
7,CN(C(=O)Cc1ccccc1)[C@@H]1CC[C@]2(CCCO2)C[C@H]1N1CCCC1,inactive: 0.11%
8,NC(=O)Nc1ccc([As](=O)(O)O)cc1,inactive: -14.9%
9,Cc1ccc2nc3c(c(C)c2c1)CC(C(Cl)Cl)S3 (stereo not drawn),inactive: -9.87%
10,Cc1ccc(OP(=O)(Nc2ccc([N+](=O)[O-])cn2)Oc2ccc(C)cc2)cc1,inactive: -6.7%
11,O=[As](O)(c1ccc(O)cc1)c1ccccc1O,inactive: -9.96%
12,C[As](=O)(O)c1cccc(C(=O)O)c1,inactive: -4.7%
13,CC(C)NC(=O)NP(=O)(Oc1ccccc1)Oc1ccccc1,inactive: -9.6%
14,CCN(CC)C(=S)SC(NC=O)C(Cl)(Cl)Cl (stereo not drawn),inactive: -17.9%
15,O=[N+]([O-])c1cc([N+](=O)[O-])c(-c2ccn[nH]2)s1,inactive: -1.52%
16,CC(C)c1ccc(OP(=O)(Nc2ccccn2)Oc2ccccc2F)cc1 (stereo not drawn),inactive: -5.86%
17,ClCCSc1nnc(-c2cccnc2)o1,inactive: -1.54%
18,COc1ccc2nc(NP(=O)(c3ccccc3)c3ccccc3)sc2c1,inactive: -2.24%
19,COc1cc(I)ccc1[As](=O)(O)O,inactive: -7.96%
20,O=C(OC1CN2CCC1CC2)C12CC3CC(CC(C3)C1)C2 (stereo not drawn),inactive: -9.28%
21,Cc1cc(=O)[nH]c(N[N+](=O)[O-])n1,inactive: -3.52%
22,Cc1c2c(nc3ccccc13)SC(C(Cl)Cl)C2 (stereo not drawn),inactive: -13.9%
23,COc1ccc(N/C(=N/P(=O)(N2CCOCC2)N2CCOCC2)N2CCOCC2)cc1,inactive: 2.74%
24,O=C(COc1ccccc1)OC1CN2CCC1CC2 (stereo not drawn),inactive: -4.37%
25,COP1(=S)c2c(C)nn(CCC#N)c2N=C(c2ccc(F)cc2)N1C (stereo not drawn),inactive: 5.76%
26,CCC(C)N(CC(C)C)C(=S)SC(NC(C)=O)C(Cl)(Cl)Cl (stereo not drawn),inactive: -5.78%

row,SMILES,inhibition
1,CCOC(=O)c1ccc(NC(=O)C(C)(CCl)SC)cc1 (stereo not drawn),inactive: -19.9%
2,Cc1cc(SC(NC(=O)c2ccccc2)C(Cl)(Cl)Cl)nc(C(C)C)n1 (stereo not drawn),inactive: -19.7%
3,CCOC(=O)Nc1ccc([As](=O)(O)O)c(O)c1,inactive: -7.35%
4,O=[N+]([O-])c1ccc(Nc2ccc(Oc3ccc([N+](=O)[O-])cc3[N+](=O)[O-])cc2)c([N+](=O)[O-])c1,inactive: -10.1%
5,O=P(Nc1ccccn1)(c1cccc2ccccc12)c1cccc2ccccc12,inactive: -15.2%
6,Cc1cc(SC(NC=O)C(Cl)(Cl)Cl)ncn1 (stereo not drawn),inactive: -3.89%
7,CCOC(=O)Nc1cccc([As](=O)(O)O)c1,inactive: 5.38%
8,O=C(Nc1cc([As](=O)(O)O)ccc1O)c1ccccc1,inactive: -8.26%
9,O=[N+]([O-])c1cccc(NC2=NCC(CBr)S2)c1 (stereo not drawn),inactive: -9.56%
10,O=C(O)CNc1ccc([As](=O)(O)O)cc1,inactive: 2.76%
11,CC(C)(C)C(=O)NC(Sc1ccncn1)C(Cl)(Cl)Cl (stereo not drawn),inactive: 0.59%
12,O=[N+]([O-])c1ncn(CCn2ncnc2[N+](=O)[O-])n1,inactive: -1.47%
13,O=[N+]([O-])c1cccc2n[nH]nc12,inactive: -5.05%
14,CC(=O)N1C2C3N(C(C)=O)C1C1N(C(C)=O)C(C(N1C(C)=O)N3C(C)=O)N2C(C)=O,inactive: -9.94%
15,Cc1ccc(NP(=O)(Oc2ccccc2)Oc2ccccc2)nc1,inactive: -2.22%
16,CCc1nc2c(n1)c1c(non1O)c1c2no[n+]1[O-],inactive: -14.7%
17,O=[N+]([O-])c1cc([N+](=O)[O-])c(CCNc2ccccc2)c([N+](=O)[O-])c1,inactive: -2.86%
18,COc1ccc(C2=NCC(CBr)S2)cc1 (stereo not drawn),inactive: -2.82%
19,CC(C)=N/N=C(\N)N[N+](=O)[O-],inactive: -0.24%
20,CN(C)C(=O)OCCc1n(C)cc[n+]1C,inactive: -5.35%
21,CC1CCN(C(=O)Oc2c(Cl)cc(Cl)c3cccnc23)CC1,inactive: -11.1%
22,Nc1ccc([As](=O)(O)c2ccc(N)cc2)cc1,inactive: -7.8%
23,C[N+]1=C2C=CC=CC=C2SC12C([N+](=O)[O-])=CC([N+](=O)[O-])=C[C-]2[N+](=O)[O-] (stereo not drawn),inactive: 5.79%
24,CCN(/C(=N/P(=O)(N1CCOCC1)N1CCOCC1)N1CCOCC1)c1ccc(OC)cc1,inactive: 7.44%
25,COc1ccccc1OP(=O)(Nc1ccc(C)cn1)Oc1ccccc1OC,inactive: -5.08%
26,Cc1ccc(OP(=O)(Nc2nccs2)Oc2ccc(C)cc2)cc1,inactive: -12%

row,SMILES,inhibition
1,CN1CCCC(OC(=O)C(c2ccccc2)c2ccccc2)C1 (stereo not drawn),inactive: 3.83%
2,NC(=O)c1cc([N+](=O)[O-])cc([N+](=O)[O-])c1N,inactive: 1.99%
3,Cc1ccc(N/C(=N/P(=O)(N2CCOCC2)N2CCOCC2)N2CCOCC2)cc1,inactive: -0.76%
4,Nc1cc(N)c2nonc2c1[N+](=O)[O-],inactive: -15.2%
5,CC(C)CC(=O)NC(Sc1ccc(Cl)cc1)C(Cl)(Cl)Cl (stereo not drawn),inactive: -8.49%
6,Oc1ccccc1CNc1ccccn1,inactive: -0.41%
7,O=C(NC(Sc1ccncn1)C(Cl)(Cl)Cl)c1ccccc1 (stereo not drawn),inactive: -18.6%
8,Cc1c2non([O-])c-2c(C)[n+](=O)[n+]1[O-],inactive: -25.5%
9,Cc1cc(SC(NC(=O)c2ccc(F)cc2)C(Cl)(Cl)Cl)ncn1 (stereo not drawn),inactive: -23.4%
10,CCOP(=O)(Nc1ccccc1)OCC,inactive: -8.85% and inactive: -14%
11,Cc1ccc(NP(=O)(Oc2ccccc2F)Oc2ccccc2F)nc1,inactive: -7.37%
12,CC(=O)Nc1ccc([As](=O)(O)O)cc1,inactive: -37.7%
13,O=C(O)c1ccccc1[As](=O)(O)O,inactive: 8.29%
14,O=P(Nc1nc2ccc(Cl)cc2s1)(c1ccccc1)c1ccccc1,inactive: -7.09%
15,CCN(N=Nc1nonc1N)c1nonc1N,inactive: -3.17%
16,Nc1cccc2ccc([As](=O)(O)O)cc12,inactive: 11%
17,CCNC(=S)/N=C(\N)N[N+](=O)[O-],inactive: -3.21%
18,O=C(NC1CCS(=O)(=O)C1)NP(=S)(Oc1ccccc1)Oc1ccccc1 (stereo not drawn),inactive: 5.62%
19,c1ccc(-c2nn[nH]n2)c(-c2nn[nH]n2)c1,inactive: 14.4%
20,CCOC(=O)NC(Sc1ccccc1)C(Cl)(Cl)Cl (stereo not drawn),inactive: -21.7%
21,Cc1ccc(NP(=O)(Oc2cccc(C)c2)Oc2cccc(C)c2)nc1,inactive: -4.91%
22,Cc1ccccc1OP(=O)(Nc1ccccn1)Oc1ccccc1C,inactive: -16%
23,O=c1c2cc([N+](=O)[O-])ccc2[nH]c2c([N+](=O)[O-])cc([N+](=O)[O-])cc12,inactive: -12.8%
24,CN(C)C(=O)Oc1noc2ccccc12,inactive: 3.04%
25,COC(=O)c1cc2c(s1)N=C(c1ccccc1)N(C)P2(=O)N1CCOCC1 (stereo not drawn),inactive: 0.33%

# From PubChem BioAssay AID1274 (Emory University Molecular Libraries Screening Center, 2008)
